Experimental data as given in PubChem BioAssay AID720553 (National Center for Advancing Translational Sciences (NCATS), 2013).
The entries are a selection whose mix differs from that of the whole data set. Calls of active or inactive are those of the source.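 How the source made its calls: active means maximum activity change below -70%; inconclusive means maximum activity change from -70% to -50%; inactive means maximum activity change above -50%.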

What follows are molecules tested on Potassium voltage-gated channel subfamily H member 2, brain isoform KCNH2 3.1 (human) (assay: qHTS for Inhibitors of KCHN2 3.1: Mutant qHTS). Conditions: U2OS KCNH2 3.1, thallium flux FluxOr; active compounds read low.
In short: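 Kinetic fluorescence (2 min after stimulation buffer) measures Tl+ influx through KCNH2 3.1 expressed by viral transduction in U2OS cells; the rate constant is normalized against DMSO controls serving as positive and negative references.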
On the % scale 0 is the no-effect control and ±100 the full control effect.

| SMILES | activity change |
| --- | --- |
| CC(C)(C)OC(=O)N1CCC(N(C(=O)c2ccccc2)c2ccc(Cl)cc2)CC1 | inactive: 23.4% |
| CN(C)c1ccc(C(=O)NCC2(N3CCCCC3)CCCCC2)cc1 | inactive: 2.95% |
| O=C(NCC1(N2CCCCC2)CCCCC1)c1ccco1 | inactive: -14.3% |
| CCN1CCC(Nc2cccc(F)c2)CC1 | inactive: -0.122% |
| Cc1ccccc1NC1(C#N)CCN(Cc2ccccc2)CC1 | inactive: -5.14% |
| Fc1ccccc1NC1CCN(Cc2ccccc2)CC1 | inactive: -3.81% |
| Cc1ccc(Nc2c([N+](=O)[O-])cc([N+](=O)[O-])cc2[N+](=O)[O-])cc1 | inactive: -0.304% |
| Cc1ccc(C(=O)NCC2(N3CCCCC3)CCCCC2)o1 | inactive: 0.986% |
| Cc1ccc(NC2(C#N)CCN(Cc3ccccc3)CC2)cc1 | inactive: 5.71% |
| CC(=O)N(c1ccccc1)C1CCNCC1 | inactive: 40.2% |
| COc1cc(OC)cc(C(=O)NCC2(N3CCCCC3)CCCCC2)c1 | inactive: 10.7% |
| CN1CCC(Nc2ccc(Cl)cc2)CC1 | inactive: -24.1% |
| COc1cc(OC)cc(C(=O)NCC2(N3CCOCC3)CCCCC2)c1 | inactive: -12.4% |
| COc1cccc(C(=O)N(c2cc(C)cc(C)c2)C2CCN(C(=O)OC(C)(C)C)CC2)c1 | inactive: -6.16% |
| CCC(CO)(C(=O)OC1CN2CCC1CC2)c1ccccc1 (stereo not given) | inactive: 1.58% |
| O=C(O)C1(Nc2ccccc2)CCN(Cc2ccccc2)CC1 | inactive: 1.01% |
| CC(C)(C)OC(=O)N1CCC(Nc2ccccc2)CC1 | inactive: -3.28% |
| CCCOc1ccc(C(=O)NCC2(N(C)C)CCCCC2)cc1 | inactive: -10.1% |
| CN1CCC(Nc2ccc(F)c(Cl)c2)CC1 | inactive: 5.99% |
| CCOc1ncccc1C(=O)NCC1(N2CCOCC2)CCCCC1 | inactive: 9.92% |
